These results are taken from patent US20090292146A1, “[…] PRECURSOR FOR AN Rh COMPLEX […]” (Evonik Oxeno GmbH, priority 2006, published 2009).

The data set is described as follows: Solubility of catalyst precursors in various solvents (Rh concentration in the supernatant of a saturated solution). The class given is physicochemical. The conditions noted are these: saturated solution warmed to about 60° C., stood overnight, filtered at room temperature.

In the case of HRh(triphenylphosphine)3(CO), the “Solubility in mg/kg (mg of Rh/kg of solvent)” value runs as follows: (in isopropanol) 140 mg/kg (mg of Rh/kg of solvent); (in propylene carbonate) 530 mg/kg (mg of Rh/kg of solvent); (in toluene) 470 mg/kg (mg of Rh/kg of solvent).
Regarding rhodium nonanoate [Rh nonanoate], the “Solubility in mg/kg (mg of Rh/kg of solvent)” value by setting is: (in isopropanol) 5100 mg/kg (mg of Rh/kg of solvent); (in propylene carbonate) 30 mg/kg (mg of Rh/kg of solvent); (in toluene) 19 000 mg/kg (mg of Rh/kg of solvent).
